According to patent US20230131808A1, “PEGYLATED INTERFERON TAU AND COMPOSITIONS AND METHODS THEREOF” (priority 2020, published 2023):

Test system: ZIKV (PRVABC59)
Assay: Anti-Zika virus (ZIKA/PRVABC59) CPE assay in Huh-7 cells
Type: cell-based

IFN-β: IFN beta, type I interferon used as control in the anti-ZIKV CPE assay
Average Activity(%) (0.06 IU/ml): 8.47% | Average Activity(%) (0.32 IU/ml): 9.30% | Average Activity(%) (1.60 IU/ml): 23.79% | Average Activity(%) (8.00 IU/ml): 69.21% | Average Activity(%) (40.00 IU/ml): 90.30% | Average Activity(%) (200.00 IU/ml): 96.36% | EC50 (Huh-7 cells, ZIKA/PRVABC59, CPE): 4.10 IU/ml
